This note sets out measurements from US20260108527A1, “POLO LIKE KINASE 4 INHIBITORS” (ORIC Pharmaceuticals, Inc., priority 2022, published 2026).

Sequences of proteins named here, by UniProt entry; tags and fusion partners are left off.
UniProt O14965, whole entry: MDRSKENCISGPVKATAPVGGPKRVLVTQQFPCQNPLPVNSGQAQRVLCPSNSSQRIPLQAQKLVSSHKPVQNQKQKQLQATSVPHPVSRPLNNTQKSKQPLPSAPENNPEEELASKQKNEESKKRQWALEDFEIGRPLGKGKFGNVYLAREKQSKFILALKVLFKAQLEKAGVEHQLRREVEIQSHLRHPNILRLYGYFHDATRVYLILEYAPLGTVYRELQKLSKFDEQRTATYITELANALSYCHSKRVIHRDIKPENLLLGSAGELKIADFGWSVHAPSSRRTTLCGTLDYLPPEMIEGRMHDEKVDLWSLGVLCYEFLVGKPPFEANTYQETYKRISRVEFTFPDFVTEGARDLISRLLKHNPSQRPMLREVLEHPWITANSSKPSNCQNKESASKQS
UniProt Q96GD4, whole entry: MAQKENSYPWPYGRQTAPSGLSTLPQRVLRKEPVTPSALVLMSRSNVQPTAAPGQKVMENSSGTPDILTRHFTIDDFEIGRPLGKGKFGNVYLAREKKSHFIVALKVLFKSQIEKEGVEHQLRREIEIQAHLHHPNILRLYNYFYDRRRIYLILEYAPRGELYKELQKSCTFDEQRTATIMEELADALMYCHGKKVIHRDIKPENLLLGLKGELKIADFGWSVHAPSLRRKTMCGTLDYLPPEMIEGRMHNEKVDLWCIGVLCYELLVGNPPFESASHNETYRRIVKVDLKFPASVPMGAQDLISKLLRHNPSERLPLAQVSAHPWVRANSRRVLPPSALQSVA
UniProt O00444, whole entry: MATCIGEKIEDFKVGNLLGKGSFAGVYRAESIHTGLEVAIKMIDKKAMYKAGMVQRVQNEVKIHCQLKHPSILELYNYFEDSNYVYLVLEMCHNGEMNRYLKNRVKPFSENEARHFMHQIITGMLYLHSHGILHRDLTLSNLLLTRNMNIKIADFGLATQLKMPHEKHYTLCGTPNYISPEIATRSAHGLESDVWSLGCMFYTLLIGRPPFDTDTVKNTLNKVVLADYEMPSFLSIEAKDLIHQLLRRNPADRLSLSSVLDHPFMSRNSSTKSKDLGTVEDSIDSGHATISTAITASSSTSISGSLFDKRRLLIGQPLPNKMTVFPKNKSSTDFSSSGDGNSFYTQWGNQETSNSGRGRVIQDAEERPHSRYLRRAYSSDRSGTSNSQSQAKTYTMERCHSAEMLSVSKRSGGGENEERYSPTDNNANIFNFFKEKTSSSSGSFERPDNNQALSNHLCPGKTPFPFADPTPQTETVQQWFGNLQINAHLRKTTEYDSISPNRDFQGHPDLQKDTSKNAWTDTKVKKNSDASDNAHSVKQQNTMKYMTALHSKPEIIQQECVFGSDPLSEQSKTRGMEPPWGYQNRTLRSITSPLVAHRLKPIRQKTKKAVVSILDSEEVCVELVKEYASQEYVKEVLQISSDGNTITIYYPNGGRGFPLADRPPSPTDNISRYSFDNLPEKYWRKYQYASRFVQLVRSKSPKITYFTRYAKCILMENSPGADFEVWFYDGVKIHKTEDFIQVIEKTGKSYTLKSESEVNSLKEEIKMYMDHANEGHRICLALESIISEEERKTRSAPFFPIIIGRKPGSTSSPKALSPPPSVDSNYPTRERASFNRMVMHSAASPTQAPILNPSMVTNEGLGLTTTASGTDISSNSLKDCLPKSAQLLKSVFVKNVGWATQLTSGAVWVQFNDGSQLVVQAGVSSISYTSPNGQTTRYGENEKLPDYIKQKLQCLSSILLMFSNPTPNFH

The target of test [1] is human recombinant Aurora A (Homo sapiens, UniProt O14965). Nature of the test: Aurora A Kinase Biochemical Assay (ADP-Glo). To be noted: selectivity ratio; Aurora A 2.5 nM, 20 μM ATP.
Test [2] addresses human recombinant Aurora B (Homo sapiens, UniProt Q96GD4). Nature of the test: Aurora B Kinase Biochemical Assay (ADP-Glo). Conditions: selectivity ratio; Aurora B 10 nM, 114 μM ATP.
A further test deals with human recombinant PLK4 (Homo sapiens, UniProt O00444). The experiment in a line: PLK4 Biochemical Assay (ADP-Glo). To be noted: read-out: PLK4 IC50; 0.5 nM PLK4, 8.0 μM ATP, 4.7 μM MBP, 6 hours at RT.
The next test deals with CHP134. Nature of the test: CHP134 CellTiter-Glo (CTG) Assay. To be noted: read-out: CTG IC50; viable cells by CellTiter-Glo after 5 days.

Turning to `[2H]C([2H])([2H])Oc1ccc2c(c1)[C@]1(C[C@H]1c1ccc3c(Nc4nc(C)ncc4OCC)n[nH]c3c1)C(=O)N2`, the “[Aurora A IC50 (nM)]/[PLK4 IC50 (nM)]” value in test [1] is 4818.3738. Further, the “[Aurora B IC50 (nM)]/[PLK4 IC50 (nM)]” value in test [2] came to 341.1826. Further, the IC50 stood at 1.89 nM on human recombinant PLK4 and 411 nM in the test on CHP134.
